Values quoted from earlier work, collected in patent publication US8216550B2, “Luciferins” (University of Massachusetts, priority 2007, dated 2012).

By UniProt entry, the sequences of proteins in these tests, tags left out.
UniProt P08659, whole entry: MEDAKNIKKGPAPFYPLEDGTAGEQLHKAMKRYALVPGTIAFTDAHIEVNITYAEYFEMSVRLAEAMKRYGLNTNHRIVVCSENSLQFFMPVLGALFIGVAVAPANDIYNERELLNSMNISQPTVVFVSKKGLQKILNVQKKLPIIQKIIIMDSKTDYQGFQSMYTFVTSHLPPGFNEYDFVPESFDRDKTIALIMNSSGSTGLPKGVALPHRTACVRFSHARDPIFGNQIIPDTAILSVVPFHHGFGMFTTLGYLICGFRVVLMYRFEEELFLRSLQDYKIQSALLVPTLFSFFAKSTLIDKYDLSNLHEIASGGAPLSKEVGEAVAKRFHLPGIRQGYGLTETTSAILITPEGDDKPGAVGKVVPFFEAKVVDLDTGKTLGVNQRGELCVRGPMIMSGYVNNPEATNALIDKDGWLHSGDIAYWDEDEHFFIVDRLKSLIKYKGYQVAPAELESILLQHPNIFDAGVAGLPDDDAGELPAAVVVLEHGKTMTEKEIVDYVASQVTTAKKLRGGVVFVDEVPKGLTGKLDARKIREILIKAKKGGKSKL

Biological target: Firefly luciferase (Photinus pyralis, UniProt P08659)
Conditions: firefly luciferase combined with firefly luciferin, yellow-green light; cited from earlier work

O=C(O)[C@H]1CSC(c2nc3ccc(O)cc3s2)=N1 [D-luciferin]
emitted light wavelength: 560 nm
